Patent US4267192A, “Method for treating inflammation” (priority 1980, dated 1981)

Test system: rat stomach (gastric ulcers, gastric swelling)
Assay type: in vivo, rat (male Charles River, Sprague-Dawley)
Conditions: for Number of Animals With Gastric Ulcers: po
Description: The rats are divided into groups 6-10 and dosed by the oral route with test compound, on a mg/kg. body weight basis, or vehicle control, 0.5% carboxymethylcellulose, in a volume of 3 ml. per rat. Four hours after dosing, the rats are decapitated and exsanguinated. Stomachs are removed and examined for gastric swelling and then opened and washed for visual inspection of gastric ulcers. Only one lesion or gastric bleeding is necessary for a positive response. Data is reported quantally.

CC(=O)Oc1ccccc1C(=O)O [Aspirin, aspirin, reference compound]
effects on the gastric tract (in vivo): significant effects on the gastric tract | Number of Animals With Gastric Ulcers (in vivo, 60 mg/kg): 0/10 | Number of Animals With Gastric Ulcers (in vivo, 120 mg/kg): 0/10 | Number of Animals With Gastric Ulcers (in vivo, 240 mg/kg): 0/10 | Number of Animals With Gastric Ulcers (in vivo, 480 mg/kg): 0/10 | Number of Animals With Gastric Swelling (oral 120 mg/kg, 4 hours after dosing): 3/10 | blood present (number of animals) (oral 240 mg/kg, 4 hours after dosing): 3/10 | blood present (number of animals) (oral 480 mg/kg, 4 hours after dosing): 7/10

Like-named read-outs stand apart in the source and are kept apart here.
